These results are taken from ChEMBL document CHEMBL3612054 (Bioorg Med Chem, 2015).

Chains of the proteins cited; added tags and fusions are not shown. Lines headed by an entry give the natural chain unless they say otherwise; changes in a name come on top.
UniProt P41143, whole entry: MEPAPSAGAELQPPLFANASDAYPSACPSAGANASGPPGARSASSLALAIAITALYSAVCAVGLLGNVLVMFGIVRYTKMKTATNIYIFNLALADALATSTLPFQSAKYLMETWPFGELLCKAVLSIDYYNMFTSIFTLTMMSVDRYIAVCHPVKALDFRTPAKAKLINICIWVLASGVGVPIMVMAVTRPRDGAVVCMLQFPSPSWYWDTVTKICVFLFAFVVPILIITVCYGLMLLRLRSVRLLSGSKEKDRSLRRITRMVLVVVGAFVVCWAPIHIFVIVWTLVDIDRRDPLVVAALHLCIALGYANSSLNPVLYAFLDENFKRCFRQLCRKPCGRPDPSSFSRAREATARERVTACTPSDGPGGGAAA
UniProt P35372, whole entry: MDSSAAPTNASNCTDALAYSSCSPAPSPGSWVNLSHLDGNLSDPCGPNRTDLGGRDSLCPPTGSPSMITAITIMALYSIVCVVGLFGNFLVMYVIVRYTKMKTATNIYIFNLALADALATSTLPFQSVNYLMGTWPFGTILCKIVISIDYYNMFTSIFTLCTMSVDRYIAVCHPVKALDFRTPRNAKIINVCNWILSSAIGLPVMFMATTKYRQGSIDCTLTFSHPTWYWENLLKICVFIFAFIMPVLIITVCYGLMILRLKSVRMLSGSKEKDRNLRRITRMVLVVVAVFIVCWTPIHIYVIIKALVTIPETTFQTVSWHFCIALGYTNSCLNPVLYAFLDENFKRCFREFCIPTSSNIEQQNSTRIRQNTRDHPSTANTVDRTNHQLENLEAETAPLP
UniProt P41145: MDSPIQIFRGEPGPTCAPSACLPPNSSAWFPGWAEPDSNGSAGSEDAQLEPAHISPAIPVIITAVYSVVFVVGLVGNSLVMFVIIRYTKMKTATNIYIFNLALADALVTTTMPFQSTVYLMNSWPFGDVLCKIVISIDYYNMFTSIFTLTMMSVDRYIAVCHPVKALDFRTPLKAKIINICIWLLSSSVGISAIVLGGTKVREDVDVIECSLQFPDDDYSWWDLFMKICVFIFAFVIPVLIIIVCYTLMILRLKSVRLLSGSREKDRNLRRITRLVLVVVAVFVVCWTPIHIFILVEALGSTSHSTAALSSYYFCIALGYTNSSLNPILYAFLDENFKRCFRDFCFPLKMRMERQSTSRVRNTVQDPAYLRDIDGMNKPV

Test [1] deals with Delta-type opioid receptor (Homo sapiens) (UniProt P41143).
Test [2] deals with Mu-type opioid receptor (Homo sapiens) (UniProt P35372).
Test [3] has as its target Kappa-type opioid receptor (Homo sapiens) (UniProt P41145).

Take `CC(C)[C@@H](CN1CCC(c2cccc(F)c2)CC1)NC(=O)[C@H]1Cc2ccc(O)cc2CN1`: in test [1], the Ke was determined as 128 nM.
The same measure, in the same setting: in the case of `CC(C)[C@@H](CN1CCC(C)(c2cccc(F)c2)CC1)NC(=O)[C@H]1Cc2ccc(O)cc2CN1` it was 1480 nM.
On to `CC(C)[C@@H](CN1CC[C@@](C)(c2ccccc2)[C@@H](C)C1)NC(=O)[C@H]1Cc2ccc(O)cc2CN1`, for which the results for the Ke in test [2], in test [1] and in test [3] were 8.9 nM, 442 nM and 0.024 nM, respectively.
